Earlier results in US9074014B2, “Analogues of glucose-dependent insulinotropic polypeptide” (Ipsen Pharma S.A.S., priority 2008, dated 2015).

Details: unmodified GIP; Said and Mutt, 1970; cited from earlier work

Glucose-dependent insulinotropic polypeptide [GIP]
in vivo half-life: about 2 minutes
